The conditions of the data set: PAMPA, pH 7.4. Background: The PAMPA barrier holds no transporters, so it reflects passive diffusion.

For the compound `COc1ccc2c3c1O[C@H]1C[C@@H](O)C=C[C@@]31CCN(C)C2` [Galantamine, reference compound], the “Pe ± SEM” value is 6.7 ± 0.7 ×10^−6 cm s^−1.

Source of the values: paper PMC11110763, “Carltonine-derived compounds for targeted butyrylcholinesterase inhibition” (RSC Medicinal Chemistry, 2024).
